Measurements: US20060084113A1

Legend:
[1] = target: human neutrophil elastase (HNE), immobilized on agarose beads (human) (UniProt P08246); test: phage on beads, acid elution, pfu
[2] = target: normal rabbit serum / IgG purified from normal rabbit serum; test: phage titer after normal rabbit IgG; batch 4
[3] = target: normal rabbit serum / IgG purified from normal rabbit serum; test: phage titer after normal rabbit IgG and protein A-agarose; batch 4
[4] = target: trypsin (immobilized active trypsin, Pierce; or free trypsin) (UniProt P00760); test: phage on beads, acid elution, pfu
[5] = target: anhydro-trypsin (agarose-immobilized, Pierce) (UniProt P00760); test: phage on beads, acid elution, pfu; experiment 1
[6] = target: normal rabbit serum / IgG purified from normal rabbit serum; test: phage titer after normal rabbit IgG; batch 5
[7] = target: anhydro-trypsin (agarose-immobilized, Pierce) (UniProt P00760); test: phage titer after incubation with beads
[8] = target: streptavidin (agarose-immobilized, Sigma) (UniProt P22629); test: phage titer after incubation with beads
Protein A-agarose beads = Protein A-agarose beads (UniProt P38507); test: phage titer after protein A-agarose; batch 5
[9] = target: normal rabbit serum / IgG purified from normal rabbit serum; test: phage titer after normal rabbit IgG and protein A-agarose; batch 5
[10] = target: anhydro-trypsin (agarose-immobilized, Pierce) (UniProt P00760); test: phage on agarose beads, pH 2.2 elution, dot blot
[11] = target: streptavidin (agarose-immobilized, Sigma) (UniProt P22629); test: phage on agarose beads, pH 2.2 elution, dot blot
[12] = target: trypsin (immobilized active trypsin, Pierce; or free trypsin) (UniProt P00760); test: phage on beads, elution, pfu
[13] = target: anhydro-trypsin (agarose-immobilized, Pierce) (UniProt P00760); test: phage on beads, elution, pfu
[14] = target: trypsin (immobilized active trypsin, Pierce; or free trypsin) (UniProt P00760); test: phage on protease beads, pH 2.2 elution

“M13MB48 phage (BPTI:VIII fusion protein display phage) (from UniProt P00974 36-93) (other; other documents disagree on this pair)” was tested, and the eluted phage, % of input [1] was 0.009 % of input and the relative binding (to M13MP18) [1] was 30 fold.
“M13MB48 phage (BPTI:VIII fusion protein display phage) (from UniProt P00974 36-93)” was tested, and the % of input pfu left, +NRS [2] was 125 % of input, the % of input pfu left, +NRS +Protein A [3] was 121 % of input and the eluted phage, % of input [4] was 0.13 % of input. For the same substance, the relative binding (to M13MP18) [4] was 260 fold, the binding relative to M13MP18 [5] was 56 fold and the eluted phage, % of input [5] was 11.2 % of input. For the same substance, the % of input pfu left, +NRS [6] was 105 % of input, the % of input pfu left after incubation [7] was 58 % of input and the % of input pfu left after incubation [8] was 98 % of input. For the same substance, the % of input pfu left, +Protein A (Protein A-agarose beads) was 58 % of input and the % of input pfu left, +NRS +Protein A [9] was 110 % of input.
For “M13.3X7 phage (BPTI:VIII fusion with one EGGGS linker) (from UniProt P00974 36-92) (other; other documents disagree on this pair)”, the eluted phage, % of input [1] was 0.001 % of input and the relative binding (to M13MP18) [1] was 3.3 fold.
In the case of “BPTI-III MK phage (M13 derivative displaying BPTI fused to the gene III protein)”, the percent of total phage recovered in elution buffer, 2 µl IAT [10] is reported as 5%, the percent of total phage recovered in elution buffer, 5 µl IAT [10] is reported as 20% and the percent of total phage recovered in elution buffer, 10 µl IAT [10] is reported as 50%. For the same substance, the percent of total phage recovered in elution buffer, 5 µl IS [11] was less than 1%.
With “M13.3X7 phage (BPTI:VIII fusion with one EGGGS linker) (from UniProt P00974 36-92)” the eluted phage, % of input [4] was 1.15 % of input, the relative binding (to M13MP18) [4] was 2300 fold and the eluted phage, % of input [12] was 1.4 % of input. The relative binding (to M13MP18) [12] was 6000 fold, the eluted phage, % of input [13] was 25 % of input and the relative binding (to M13MP18) [13] was 250 fold.
“M13.3X11 phage (BPTI:VIII fusion with 3 linkers)” was tested, and the eluted phage, % of input [13] was 9.2 % of input and the relative binding (to M13MP18) [13] was 92 fold.
Substance BPTI(K15L)-III MA phage has a percentage of input phage recovered [14] of 0.005% and a total pfu in elution fraction [14] of 52000 pfu.
